A549 tox: A549 cytotoxicity, counter-screen for Nrf2 inhibitors; A549 ARE-Fluc cells, CellTiter-Fluor viability, 18-24 h; Potency, µM (top dose mostly 46 µM), without a hit: top-dose activity change, negative = cytotoxicity, actives largely listed as inhibitors; 390,000 tested, 0.16% active; AID 504648; note: potency is the fitted concentration of half-maximal effect; % is set by controls: 0 for no effect and ±100 for the full control effect
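A549 ARE-Fluc cells in 5% FBS OPTI-MEM, 5000 cells/well, rested 2 h then exposed to compounds in concentration-response for 18-24 h at 37 °C. Viability by CellTiter-Fluor fluorescence (Ex 405/Em 525) after 30 min; luciferase luminescence (BugLite, 15 min, RT) read afterwards.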
IL-2 act: activators of IL-2 | IL-2 activation reporter assay, cell-based qHTS; stimulated with anti-CD3/CD4/CD28 beads; in transgenic mouse T cells | activation, % (series mostly up to about 46 µM) | 360,000 tested, 0.065% active | AID 652025; in the data active = activation above about 50%; inconclusive = mostly about 30% to 49%; note: 0% is about no effect
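Unstimulated transgenic mouse T cells, 750 per well, received compound and, after 60 minutes, anti-CD3/anti-CD4 bead plus anti-CD28 stimulation. EGFP and DsRed were quantified after 18 hours.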
ClpP mod: qHTS Assay for Activators of ClpP; purified B. subtilis ClpP, FRET peptide cleavage, 20 min; Potency, µM (series often up to 57.5 µM), for inactives: top-dose activity change, negative = active; 340,000 tested, 1.9% active; AID 651965, 2013; active = well fitted falling curve with a large enough effect; inconclusive = small, poorly fitted or top-dose-only effect; inactive = no such curve, though single readings can be large or run the other way; note: potency is the fitted concentration of half-maximal effect; the source files actives as falling curves though it sought activators and does not explain the sign; nearly all actives have a fitted effect of over 65% in size
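ClpP 10 microg/mL final, pH 8 Tris/KCl buffer with BSA, glycerol, Tween-20; compound pinned in; FRET-FV substrate; RT 20 min; Ex320/Em430; ΔFRET vs ADEP 5.8 microM, DMSO, no enzyme.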
miR-21 reporter: raises the signal of a miR-21 reporter | AID 2288 | 340,000 tested, under 10 active | Potency, µM (series often up to 38.3 µM), without a hit: at the highest dose reporter change, positive = more light | HeLa miR-21 FLuc reporter, luciferase, 48 h; active = well fitted rising curve with a large enough effect; inconclusive = small, poorly fitted or top-dose-only effect; inactive = no such curve, though single readings can be large or run the other way;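 further: % of control where 0% means no effect; miR-21 action dims this reporter so a rising signal means less miR-21 action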
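HeLa cells stably expressing CMV-driven firefly luciferase with a downstream miR-21 binding sequence, endogenously expressing miR-21, were treated with titrations (up to about 40uM final) for 48 hours at 37 degree Celsius. Luciferase luminescence was read after lysis.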
Nrf2 inh: Nrf2 pathway inhibition | A549 ARE-Fluc reporter, luciferase luminescence, 18-24 h | Potency, µM (top dose mostly 46 µM), for inactives: at the highest dose activity change, negative = inhibition, usual class: inhibitors | 360,000 tested, 2.1% active; note: potency is the fitted concentration of half-maximal effect; % is set by controls: 0 for no effect and ±100 for the full control effect; nearly all actives have a fitted effect of over 60% in size
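In this cell-based qHTS, ARE-driven firefly luciferase in A549 cells reports Nrf2 activity; the luminescent signal after BugLite lysis is the measured value, with a prior CellTiter-Fluor read for cell health.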
Nrf2 ARE act: Nrf2 pathway activation | AREc32 ARE-luciferase reporter (MCF7-derived line), luminescence, 24 h | Potency, µM (titrated, usually from 46.1 µM), inactives show at the highest dose activation, actives largely listed as activators | 410,000 tested, 0.31% active | AID 624171; note: potency is the fitted concentration of half-maximal effect; % of control where 0% means no effect; nearly all actives have a fitted effect of over 65% in size
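Each well held 1000 AREc32 cells, which were incubated with compound for 24 hr at 37 deg C after overnight attachment, and ARE reporter activity was quantified by firefly luciferase luminescence.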
Active calls of the source: *; [ ] = another dose, or the depositor's remark. Rows were chosen to be rich in hits. Some 3.7% of all compounds tested hit in one or more screens of this group. Unless noted, calls come from the whole dose curve; as a rule, active = well fitted curve in the direction sought with a large enough effect; inconclusive = small, poorly fitted or top-dose-only effect, or another doubt; inactive = no such curve, though single readings can be large; an effect the other way counts as inactive or inconclusive.

For CC1=C(C(N)=O)C(c2ccc(C)cc2)n2nc(SCc3ccccc3F)nc2N1 (centres undefined) the results were A549 tox -8%, ClpP mod -3%, miR-21 reporter 5%, Nrf2 inh 3%[9.27 µM] and Nrf2 ARE act -1%.
Screening COc1ccc(CCN(Cc2cc3cc(C)cc(C)c3nc2Cl)C(=O)C2CC2)cc1 returned A549 tox -21%, IL-2 act -2, ClpP mod inconclusive, miR-21 reporter 6%, Nrf2 inh 16µM* and Nrf2 ARE act -1%.
COc1ccc(C(=O)NCc2c(C)oc(C)c2C(=O)O)cc1 was read as A549 tox -1%, IL-2 act 1, ClpP mod 16µM*, miR-21 reporter -2%, Nrf2 inh 2% and Nrf2 ARE act -1%.
CC1CCC2(CC1)Nc1ccccc1C(=O)N2c1ccccc1 (centres undefined) was read as A549 tox -5%, IL-2 act 0, ClpP mod 28µM*, miR-21 reporter -46%, Nrf2 inh inconclusive and Nrf2 ARE act -1%.
`CCN(CC)c1ccc(NC(=O)c2cnc3ccccn3c2=O)c(C)c1` gave A549 tox -19%, IL-2 act -2, ClpP mod 4%, miR-21 reporter -3%, Nrf2 inh 2.9µM* and Nrf2 ARE act 0%.
Screening Cc1ccc(NC(=O)c2cnc3cc(C)ccn3c2=O)c(C)c1 returned A549 tox -18%, ClpP mod -2%, miR-21 reporter -54%, Nrf2 inh inconclusive and Nrf2 ARE act 3%.
Cc1cc(-c2cc(-c3ccc(Cl)cc3)on2)nc(NCC2CC2)n1 was read as A549 tox -4%, IL-2 act -2, ClpP mod 14µM*, miR-21 reporter 5%, Nrf2 inh 28% and Nrf2 ARE act -1%.
Screening COC(=O)CSc1nc2sc3c(c2c(=O)n1-c1ccccc1C)CC(C)(C)OC3 returned A549 tox 2%, ClpP mod 8%, miR-21 reporter -3%, Nrf2 inh 1% and Nrf2 ARE act -2%.
For Cc1c(O)c2c(c(C(=O)/C=C/c3ccccc3)c1O)OC(C)(C)C=C2 the results were ClpP mod -1%.
`CN1C(=O)c2ccccc2N(C)C1c1cccs1` (centres undefined) gave A549 tox 0%, IL-2 act 0, ClpP mod 20µM*, miR-21 reporter -6% and Nrf2 ARE act 0%.
O=C(Cc1cccs1)NC1(C(=O)NC2CCCC2)CCCCC1 was read as A549 tox 1%, IL-2 act 0, ClpP mod 25µM*, miR-21 reporter -1%, Nrf2 inh 6% and Nrf2 ARE act 0%.
O=C(Cc1c[nH]c2ccccc12)NC1(C(=O)NC2CCCCC2)CCCCC1 was read as A549 tox -4%, IL-2 act -1, ClpP mod -3%, miR-21 reporter -2%, Nrf2 inh 2% and Nrf2 ARE act 0%.
Screening O=[N+]([O-])c1ccc(Cl)cc1N/N=C/c1ccncc1 returned A549 tox -5%, IL-2 act 0, ClpP mod -1%, miR-21 reporter 2%, Nrf2 inh -30% and Nrf2 ARE act 1µM*.
O=[N+]([O-])c1cc(S(=O)(=O)Nc2ccc(Cl)cc2)ccc1N/N=C/c1ccncc1 was read as A549 tox -10%, IL-2 act -1, miR-21 reporter 0%, Nrf2 inh inconclusive and Nrf2 ARE act 0%.
`Cc1cc(Oc2ccc(N)cn2)cc(C)c1Cl` gave A549 tox 1%, IL-2 act 0, miR-21 reporter 4%, Nrf2 inh -5% and Nrf2 ARE act 1%.

Part of the list above in order of count of non-hydrogen atoms, rising.
CC1CCC2(CC1)Nc1ccccc1C(=O)N2c1ccccc1 (centres undefined) was read as A549 tox -5%, IL-2 act 0, ClpP mod 28µM*, miR-21 reporter -46%, Nrf2 inh inconclusive and Nrf2 ARE act -1%.
Cc1cc(-c2cc(-c3ccc(Cl)cc3)on2)nc(NCC2CC2)n1 was read as A549 tox -4%, IL-2 act -2, ClpP mod 14µM*, miR-21 reporter 5%, Nrf2 inh 28% and Nrf2 ARE act -1%.
For Cc1c(O)c2c(c(C(=O)/C=C/c3ccccc3)c1O)OC(C)(C)C=C2 the results were ClpP mod -1%.

More compounds:
Screening CC(C)(C)c1ccc(Oc2ccc(N)cn2)cc1 returned A549 tox -4%, IL-2 act 0, ClpP mod 4%, miR-21 reporter 29%, Nrf2 inh 18µM* and Nrf2 ARE act -1%.
Cn1c2ccccc2c2c(C(=O)NCCCN3CCCC3=O)cn(C3CCCCC3)c(=O)c21 was read as A549 tox 8%, IL-2 act -2, ClpP mod 14µM*, miR-21 reporter -2%, Nrf2 inh 4% and Nrf2 ARE act 0%.
`COc1cccc(NC(=O)c2cn(C3CCCCC3)c(=O)c3c2c2ccccc2n3C)c1` gave A549 tox -4%, ClpP mod 32µM*, miR-21 reporter 11%, Nrf2 inh -3% and Nrf2 ARE act -1%.
`CCN(CC)CCSc1nnc2c3cc(F)ccc3n(CC)c2n1` gave A549 tox -3%, ClpP mod -2%, miR-21 reporter -23%, Nrf2 inh -2% and Nrf2 ARE act 3%.
For Cn1c(=O)c2c([nH]c(=O)n2Cc2ccc(Cl)cc2Cl)n(C)c1=O the results were A549 tox -2%, ClpP mod -1%, miR-21 reporter -3%, Nrf2 inh 6% and Nrf2 ARE act -1%.
Screening CN(c1ccccc1)S(=O)(=O)c1ccc(C(=O)Nc2nnc(-c3ccc(F)cc3)o2)cc1 returned A549 tox -15%, IL-2 act 0, ClpP mod 0%, miR-21 reporter -5%, Nrf2 inh 23µM* and Nrf2 ARE act 0%.
`COc1ccc(S(=O)(=O)N(C)c2ccc(C(=O)Nc3ccccc3C(=O)N3CCOCC3)cc2)cc1` gave A549 tox -4%, IL-2 act 0, ClpP mod -1%, miR-21 reporter -6%, Nrf2 inh -5% and Nrf2 ARE act 0%.
Screening CN(c1ccccc1)S(=O)(=O)c1ccc(NC(=O)c2ccc(-c3ccccc3)cc2)cc1 returned A549 tox -21%, IL-2 act -4, ClpP mod 25µM*, miR-21 reporter 22%, Nrf2 inh 15µM* and Nrf2 ARE act 0%.
COc1cc(NC(=O)c2ccc(S(=O)(=O)N(C)c3ccccc3)cc2)cc(OC)c1 was read as A549 tox -14%, IL-2 act -1, ClpP mod -10%, Nrf2 inh inconclusive and Nrf2 ARE act 1%.
Cc1nc2cc(NC(=O)c3ccc(S(=O)(=O)N(C)c4ccccc4)cc3)ccc2o1 was read as A549 tox -19%, IL-2 act -1, miR-21 reporter inconclusive, Nrf2 inh 8.2µM* and Nrf2 ARE act 3%.
Cc1nnc(NC(=O)c2ccc(S(=O)(=O)N(C)c3ccccc3)cc2)s1 was read as A549 tox 0%, IL-2 act -3, ClpP mod -2%, Nrf2 inh inconclusive and Nrf2 ARE act 0%.
